Results published in patent publication US20200129511A1, “COMPOUNDS AND METHODS FOR TREATMENT OF NAFLD AND NASH” (Arena Pharmaceuticals, Inc., priority 2017, published 2020).

Columns and labels:
Format in all cases: in vivo
[1] = oral pharmacokinetics in dog; settings: Male beagle dog, 7.85 mg/kg, 100% PEG400
[2] = oral pharmacokinetics in mouse; settings: Male C57B1 mouse, 10 mg/kg, 40% HPβCD
[3] = oral pharmacokinetics in monkey; settings: Male cynomolgus monkey, 10 mg/kg, 100% PEG400
[4] = oral pharmacokinetics in rat; settings: Male Sprague-Dawley rat, 10 mg/kg, 40% HPβCD

## COc1c(Nc2ccc(S(C)(=O)=O)nc2C)ncnc1OC1CCN(C(=O)OC(C)C)CC1 [Compound 1, 4-[6-(6-Methanesulfonyl-2-methyl-pyridin-3-ylamino)-5-methoxy-pyrimidin-4-yloxy]-piperidine-1-carboxylic acid isopropyl ester]
[1]
  t1/2: 10.9 h
[2]
  t1/2: 5.9 h
[3]
  t1/2: 4.4 h
[4]
  t1/2: 4.3 h
